Source: ChEMBL document CHEMBL1133408, “5-Arylamino-2-methyl-4,7-dioxobenzothiazoles as inhibitors of cyclin-dependent kinase 4 and cytotoxic agents” (Bioorg Med Chem Lett, 2000)
pIC50: −log10 of the molar value.

The chains behind the UniProt entries cited, without tags or fusion partners. Where a name states a change or a piece, a line headed by the entry shows the natural chain unless it says otherwise.
UniProt P11802: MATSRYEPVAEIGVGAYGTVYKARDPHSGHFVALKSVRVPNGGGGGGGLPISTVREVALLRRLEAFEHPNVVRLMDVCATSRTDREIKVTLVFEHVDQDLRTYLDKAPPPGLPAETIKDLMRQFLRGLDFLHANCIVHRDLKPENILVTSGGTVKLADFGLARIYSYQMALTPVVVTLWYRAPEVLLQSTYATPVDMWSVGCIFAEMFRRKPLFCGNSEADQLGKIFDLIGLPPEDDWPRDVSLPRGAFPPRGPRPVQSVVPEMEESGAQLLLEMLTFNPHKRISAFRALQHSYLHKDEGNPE

Target: Cyclin-dependent kinase 4 (Homo sapiens, UniProt P11802)
Test: Inhibition of Cyclin-dependent kinase 4 (CDK4/cyclin Dl)

- pIC50: < 3.70
SMILES: Cn1cnc2c(NCc3ccccc3)nc(NCCO)nc21 [OLOMOUCINE]
